Reference: ChEMBL document CHEMBL1795228, “Air to lung partition coefficients for volatile organic compounds and blood to lung partition coefficients for volatile organic compounds and drugs” (Eur J Med Chem, 2008)
Only a part of the results on these compounds is given; other tests are left out.

Assay: In-vivo plasma to lung partition coefficients of the compound, logP(lung) in rat
Type: ADME, cell-free

With CCC(=O)N(c1ccccc1)C1(COC)CCN(CCn2nnn(CC)c2=O)CC1 the logP(lung) was -0.11.
